This note sets out measurements from ChEMBL document CHEMBL5046217, “Discovery of New Imidazo[2,1-b]thiazole Derivatives as Potent Pan-RAF Inhibitors with Promising In Vitro and In Vivo Anti-melanoma Activity” (J Med Chem, 2021).

Amino acid sequences for entries named in this document (tags omitted). A change or cut given only in a name is not applied to a line headed by its entry.
UniProt P15056, whole entry: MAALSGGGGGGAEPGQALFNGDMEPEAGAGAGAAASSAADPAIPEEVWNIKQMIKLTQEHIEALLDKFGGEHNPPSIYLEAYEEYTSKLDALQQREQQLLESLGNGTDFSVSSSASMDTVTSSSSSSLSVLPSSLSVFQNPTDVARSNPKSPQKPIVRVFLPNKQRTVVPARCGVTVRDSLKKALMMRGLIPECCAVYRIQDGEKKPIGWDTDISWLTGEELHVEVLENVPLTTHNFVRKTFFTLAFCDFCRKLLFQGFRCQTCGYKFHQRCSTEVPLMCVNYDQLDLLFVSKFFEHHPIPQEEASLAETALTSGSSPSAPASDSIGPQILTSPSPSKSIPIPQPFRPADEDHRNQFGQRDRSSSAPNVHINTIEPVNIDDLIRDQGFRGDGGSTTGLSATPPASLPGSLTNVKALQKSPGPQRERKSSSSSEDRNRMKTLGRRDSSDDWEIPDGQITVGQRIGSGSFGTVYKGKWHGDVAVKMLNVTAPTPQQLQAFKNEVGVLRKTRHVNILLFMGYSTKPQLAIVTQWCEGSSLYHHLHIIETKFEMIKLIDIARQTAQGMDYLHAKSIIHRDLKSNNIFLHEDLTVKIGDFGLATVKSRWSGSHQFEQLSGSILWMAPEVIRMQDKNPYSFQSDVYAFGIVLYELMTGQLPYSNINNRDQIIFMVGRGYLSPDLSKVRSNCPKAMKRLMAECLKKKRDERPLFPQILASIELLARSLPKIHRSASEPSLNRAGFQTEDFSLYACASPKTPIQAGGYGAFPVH
UniProt P15056, whole entry V600E: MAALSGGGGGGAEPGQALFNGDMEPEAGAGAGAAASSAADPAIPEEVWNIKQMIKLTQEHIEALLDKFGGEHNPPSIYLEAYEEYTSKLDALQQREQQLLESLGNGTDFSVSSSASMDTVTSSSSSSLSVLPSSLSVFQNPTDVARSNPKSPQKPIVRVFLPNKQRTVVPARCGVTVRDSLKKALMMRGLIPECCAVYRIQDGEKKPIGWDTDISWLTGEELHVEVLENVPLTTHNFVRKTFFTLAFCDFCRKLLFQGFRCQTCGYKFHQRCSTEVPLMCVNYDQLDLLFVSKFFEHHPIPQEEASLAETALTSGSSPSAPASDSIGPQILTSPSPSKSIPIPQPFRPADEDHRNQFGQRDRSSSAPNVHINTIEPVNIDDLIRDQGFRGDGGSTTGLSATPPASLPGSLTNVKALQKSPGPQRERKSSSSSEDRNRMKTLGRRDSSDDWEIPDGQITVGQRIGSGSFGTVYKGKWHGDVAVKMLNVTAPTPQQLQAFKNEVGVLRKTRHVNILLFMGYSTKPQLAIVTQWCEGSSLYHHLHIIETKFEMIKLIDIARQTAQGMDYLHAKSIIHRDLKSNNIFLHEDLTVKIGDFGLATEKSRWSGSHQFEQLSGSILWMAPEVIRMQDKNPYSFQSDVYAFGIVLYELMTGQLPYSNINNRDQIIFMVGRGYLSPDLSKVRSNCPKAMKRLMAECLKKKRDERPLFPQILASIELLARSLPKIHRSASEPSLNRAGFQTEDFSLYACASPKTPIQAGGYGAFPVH
UniProt O75460: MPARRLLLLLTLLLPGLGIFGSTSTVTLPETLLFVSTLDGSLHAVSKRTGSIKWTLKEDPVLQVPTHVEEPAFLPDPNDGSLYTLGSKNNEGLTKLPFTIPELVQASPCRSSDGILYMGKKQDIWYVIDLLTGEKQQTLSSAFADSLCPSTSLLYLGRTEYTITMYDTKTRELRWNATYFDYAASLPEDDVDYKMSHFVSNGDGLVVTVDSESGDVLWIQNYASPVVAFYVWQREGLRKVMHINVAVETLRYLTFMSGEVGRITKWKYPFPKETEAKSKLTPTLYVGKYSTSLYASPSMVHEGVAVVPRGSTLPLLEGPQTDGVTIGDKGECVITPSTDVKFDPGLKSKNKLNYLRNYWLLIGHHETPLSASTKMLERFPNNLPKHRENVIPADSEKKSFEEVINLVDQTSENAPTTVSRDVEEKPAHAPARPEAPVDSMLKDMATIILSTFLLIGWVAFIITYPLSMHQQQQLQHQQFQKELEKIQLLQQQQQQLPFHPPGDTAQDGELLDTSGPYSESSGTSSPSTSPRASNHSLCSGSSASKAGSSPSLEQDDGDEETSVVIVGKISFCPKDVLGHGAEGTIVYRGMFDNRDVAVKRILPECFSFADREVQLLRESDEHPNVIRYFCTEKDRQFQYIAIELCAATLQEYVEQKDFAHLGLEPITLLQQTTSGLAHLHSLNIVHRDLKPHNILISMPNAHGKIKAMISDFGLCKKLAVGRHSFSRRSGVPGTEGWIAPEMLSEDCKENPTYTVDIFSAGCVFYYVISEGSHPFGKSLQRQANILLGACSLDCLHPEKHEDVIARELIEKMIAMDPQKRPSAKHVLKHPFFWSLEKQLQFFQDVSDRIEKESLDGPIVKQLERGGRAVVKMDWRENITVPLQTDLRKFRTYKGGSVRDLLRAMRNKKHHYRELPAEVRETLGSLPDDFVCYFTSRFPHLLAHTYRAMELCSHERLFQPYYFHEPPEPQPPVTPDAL
UniProt Q15759, whole entry: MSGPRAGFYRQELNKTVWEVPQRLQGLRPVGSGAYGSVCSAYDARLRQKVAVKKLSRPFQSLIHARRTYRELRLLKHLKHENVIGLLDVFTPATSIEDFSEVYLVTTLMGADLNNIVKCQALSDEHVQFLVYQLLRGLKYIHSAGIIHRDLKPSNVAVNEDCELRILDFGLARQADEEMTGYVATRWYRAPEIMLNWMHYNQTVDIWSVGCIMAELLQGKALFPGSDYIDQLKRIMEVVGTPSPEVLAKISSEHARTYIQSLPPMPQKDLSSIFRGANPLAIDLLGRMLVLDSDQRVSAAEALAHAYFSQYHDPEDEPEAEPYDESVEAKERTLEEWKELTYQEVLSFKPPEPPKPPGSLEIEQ
UniProt P45983: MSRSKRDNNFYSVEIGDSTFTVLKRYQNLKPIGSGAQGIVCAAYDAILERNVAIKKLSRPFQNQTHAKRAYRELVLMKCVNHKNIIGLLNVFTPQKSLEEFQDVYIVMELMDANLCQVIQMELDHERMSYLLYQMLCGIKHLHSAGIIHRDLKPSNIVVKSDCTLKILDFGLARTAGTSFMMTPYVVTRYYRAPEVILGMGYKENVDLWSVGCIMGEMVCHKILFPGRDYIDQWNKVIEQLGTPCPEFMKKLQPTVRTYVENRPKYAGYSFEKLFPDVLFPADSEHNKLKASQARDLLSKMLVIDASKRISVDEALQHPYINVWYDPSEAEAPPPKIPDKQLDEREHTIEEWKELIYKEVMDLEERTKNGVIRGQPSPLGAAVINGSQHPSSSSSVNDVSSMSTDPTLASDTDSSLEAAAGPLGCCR
UniProt P11362, whole entry, looked up: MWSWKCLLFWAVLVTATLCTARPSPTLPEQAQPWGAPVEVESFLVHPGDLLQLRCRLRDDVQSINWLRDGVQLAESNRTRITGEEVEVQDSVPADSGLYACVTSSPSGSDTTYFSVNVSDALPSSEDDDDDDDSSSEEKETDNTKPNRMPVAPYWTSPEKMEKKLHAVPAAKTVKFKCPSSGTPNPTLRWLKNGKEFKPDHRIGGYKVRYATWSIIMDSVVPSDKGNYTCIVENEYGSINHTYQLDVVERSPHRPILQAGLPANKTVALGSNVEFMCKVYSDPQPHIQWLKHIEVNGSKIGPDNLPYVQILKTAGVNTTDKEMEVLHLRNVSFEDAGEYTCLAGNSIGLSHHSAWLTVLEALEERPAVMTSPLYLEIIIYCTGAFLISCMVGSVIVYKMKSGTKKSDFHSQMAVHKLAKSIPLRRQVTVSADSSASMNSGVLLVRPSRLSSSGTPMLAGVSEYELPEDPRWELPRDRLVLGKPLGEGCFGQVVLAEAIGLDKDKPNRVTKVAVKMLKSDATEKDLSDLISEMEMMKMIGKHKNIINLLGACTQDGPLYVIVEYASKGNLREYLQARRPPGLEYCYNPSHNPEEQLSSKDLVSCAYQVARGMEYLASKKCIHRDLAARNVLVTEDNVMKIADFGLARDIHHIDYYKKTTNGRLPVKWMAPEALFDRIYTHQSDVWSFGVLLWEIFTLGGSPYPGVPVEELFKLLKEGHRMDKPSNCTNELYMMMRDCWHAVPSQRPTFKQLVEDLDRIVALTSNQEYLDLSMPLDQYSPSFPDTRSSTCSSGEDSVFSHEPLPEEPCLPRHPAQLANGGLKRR
UniProt P36888, whole entry: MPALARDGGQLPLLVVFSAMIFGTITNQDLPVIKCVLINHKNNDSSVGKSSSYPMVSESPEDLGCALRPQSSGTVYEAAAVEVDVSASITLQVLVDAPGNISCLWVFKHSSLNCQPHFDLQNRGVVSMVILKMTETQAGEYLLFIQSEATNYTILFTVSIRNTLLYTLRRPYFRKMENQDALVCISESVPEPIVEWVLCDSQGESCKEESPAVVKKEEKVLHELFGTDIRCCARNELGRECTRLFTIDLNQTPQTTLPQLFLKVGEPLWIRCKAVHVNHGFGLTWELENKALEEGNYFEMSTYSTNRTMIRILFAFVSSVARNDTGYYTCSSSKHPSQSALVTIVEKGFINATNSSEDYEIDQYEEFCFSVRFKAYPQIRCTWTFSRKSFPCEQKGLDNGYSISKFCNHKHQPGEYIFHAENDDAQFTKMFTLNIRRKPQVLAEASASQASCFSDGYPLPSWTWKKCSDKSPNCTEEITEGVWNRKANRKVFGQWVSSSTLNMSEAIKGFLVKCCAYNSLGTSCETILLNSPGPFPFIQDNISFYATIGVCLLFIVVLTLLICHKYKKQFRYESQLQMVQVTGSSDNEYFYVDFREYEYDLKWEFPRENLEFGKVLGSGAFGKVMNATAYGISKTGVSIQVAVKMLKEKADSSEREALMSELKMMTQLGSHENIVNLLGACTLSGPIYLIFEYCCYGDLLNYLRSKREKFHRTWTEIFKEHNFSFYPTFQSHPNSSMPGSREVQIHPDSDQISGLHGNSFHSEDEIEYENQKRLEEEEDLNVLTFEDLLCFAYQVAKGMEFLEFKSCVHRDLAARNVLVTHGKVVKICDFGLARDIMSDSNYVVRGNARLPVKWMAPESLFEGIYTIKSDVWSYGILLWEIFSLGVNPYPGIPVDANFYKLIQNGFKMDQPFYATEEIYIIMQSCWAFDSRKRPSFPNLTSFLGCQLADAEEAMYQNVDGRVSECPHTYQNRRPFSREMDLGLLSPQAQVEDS
UniProt Q16539, whole entry: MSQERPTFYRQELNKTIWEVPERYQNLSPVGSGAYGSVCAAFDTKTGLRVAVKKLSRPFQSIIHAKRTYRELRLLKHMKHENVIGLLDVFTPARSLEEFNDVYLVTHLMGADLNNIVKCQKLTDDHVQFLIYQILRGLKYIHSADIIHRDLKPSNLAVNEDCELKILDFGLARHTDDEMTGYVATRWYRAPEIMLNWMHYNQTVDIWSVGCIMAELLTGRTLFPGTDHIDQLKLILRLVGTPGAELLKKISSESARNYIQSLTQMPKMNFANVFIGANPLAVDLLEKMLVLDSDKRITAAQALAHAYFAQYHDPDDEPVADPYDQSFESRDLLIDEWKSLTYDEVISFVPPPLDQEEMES

In assay [1] the target is Serine/threonine-protein kinase B-raf (Homo sapiens, UniProt P15056). In words: Inhibition of human wild type BRAF at 10 uM using myelin basic protein as substrate in presence of [gamma-33P]ATP incubated for 40 mins by scintillation counting method.
In assay [2] the test system is Serine/threonine-protein kinase B-raf (Homo sapiens), P15056 [V600E]. In words: Inhibition of human BRAF V600E mutant at 10 uM using myelin basic protein as substrate in presence of [gamma-33P]ATP incubated for 40 mins by scintillation counting method.
Assay [3] deals with Serine/threonine-protein kinase/endoribonuclease IRE1 (Homo sapiens, UniProt O75460). In words: Inhibition of ERN1 (unknown origin) at 10 uM incubated for 1 hr by qPCR analysis. Background: Real-time PCR tracks product formation cycle by cycle.
Assay [4] has as its target Mitogen-activated protein kinase 11 (Homo sapiens, UniProt Q15759). In words: Inhibition of MAPK11 (unknown origin) at 10 uM incubated for 1 hr by qPCR analysis.
Assay [5] concerns the target Tyrosine-protein kinase ABL1 (Homo sapiens, UniProt P00519). In words: Inhibition of ABL1 (unknown origin) at 10 uM incubated for 1 hr by qPCR analysis.
Assay [6] concerns the target Mitogen-activated protein kinase 8 (Homo sapiens, UniProt P45983). In words: Inhibition of MAPK8 (unknown origin) at 10 uM incubated for 1 hr by qPCR analysis.
Assay [7] deals with Fibroblast growth factor receptor 1 (Homo sapiens, UniProt P11362). In words: Inhibition of FGFR1 (unknown origin) at 10 uM incubated for 1 hr by qPCR analysis.
For assay [8], the target named is Mitogen-activated protein kinase kinase kinase 20 (Homo sapiens, UniProt Q9NYL2). In words: Inhibition of ZAK (unknown origin) at 10 uM incubated for 1 hr by qPCR analysis.
The target in assay [9] is Receptor-type tyrosine-protein kinase FLT3 (Homo sapiens, UniProt P36888). In words: Inhibition of FLT3 (unknown origin) at 10 uM incubated for 1 hr by qPCR analysis.
Assay [10] concerns the target Homeodomain-interacting protein kinase 1 (Homo sapiens, UniProt Q86Z02). In words: Inhibition of HIPK1 (unknown origin) at 10 uM incubated for 1 hr by qPCR analysis.
Assay [11] addresses Mitogen-activated protein kinase 14 (Homo sapiens, UniProt Q16539). In words: Inhibition of MAPK14 (unknown origin) at 10 uM incubated for 1 hr by qPCR analysis.

Activity calls are given as the source filed them. No cut-off for these calls is given here.

As a reminder, the inhibition is how much of the control response was suppressed. In the case of `COc1cccc(-c2nc3sccn3c2-c2ccnc(NCCCNS(=O)(=O)c3cccc(F)c3)n2)c1`, the values for the inhibition in assay [1] and in assay [2] were 95.2% and 97.7%, respectively.
Take `O=S(=O)(NCCCNc1nccc(-c2c(-c3cccc(O)c3)nc3sccn23)n1)c1ccccc1`: the inhibition was found to be 98.9% in assay [1] and 99.3% in assay [2].
The corresponding values for `COc1cccc(-c2nc3sccn3c2-c2ccnc(NCCN3CCN(Cc4ccccc4)S3(=O)=O)n2)c1` are 95.3% and 96.2%.
On to `COc1cccc(-c2nc3sccn3c2-c2ccnc(NCCCNS(=O)(=O)c3ccc(C)cc3)n2)c1`, for which the inhibition came to 90.6% in [1] and 94.7% in assay [2].
With `O=S(=O)(NCCNc1nccc(-c2c(-c3ccccc3)nc3sccn23)n1)c1ccc(O)cc1`, the values for the inhibition in assay [1] and in assay [2] were 99.6% and 99.2%, respectively.
Turning to `COc1ccc(S(=O)(=O)NCCCNc2nccc(-c3c(-c4cccc(OC)c4)nc4sccn34)n2)cc1`, the inhibition was 94.3% in [1] and 95.5% in [2].
On the same counts, the results for `COc1cccc(-c2nc3sccn3c2-c2ccnc(NCCCNS(=O)(=O)c3ccc(F)cc3)n2)c1` are 97.5% and 98.4%.
The corresponding values for `CN1CCCN(CCNc2nccc(-c3c(-c4cccc(O)c4)nc4sccn34)n2)S1(=O)=O` are 98.6% and 99.3%.
On the same counts, the results for `COc1cccc(-c2nc3sccn3c2-c2ccnc(NCCNS(=O)(=O)c3ccc(C(F)(F)F)cc3)n2)c1` are 94% and 98.2%.
As for `COc1cccc(-c2nc3sccn3c2-c2ccnc(NCCN3CCCN(C(=O)OC(C)(C)C)S3(=O)=O)n2)c1`, the inhibition in [1] amounted to 96%; in assay [2], 97.5%.
On the same counts, the results for `O=S(=O)(NCCNc1nccc(-c2c(-c3ccc(O)cc3)nc3sccn23)n1)c1ccc(O)cc1` are 51% and 35.3%.
For the compound `O=S1(=O)N(CCNc2nccc(-c3c(-c4cccc(O)c4)nc4sccn34)n2)CCN1Cc1ccccc1`, the inhibition was found to be 96.7% in assay [1] and 96.3% in [2].
Turning to `O=S(=O)(NCCCNc1nccc(-c2c(-c3cccc(O)c3)nc3sccn23)n1)c1cccc(F)c1`, the inhibition in assay [1] and in [2] was 100% throughout.
`CC1(C)CN(CCNc2nccc(-c3c(-c4cccc(O)c4)nc4sccn34)n2)S(=O)(=O)N1`: the inhibition in [1] came out at 98.7%; in assay [2] it was 96.5%.
On the same counts, the results for `O=S(=O)(NCCNc1nccc(-c2c(-c3cccc(O)c3)nc3sccn23)n1)c1ccccc1` are 97.9% and 98.6%.
The corresponding values for `COc1ccc(S(=O)(=O)NCCCNc2nccc(-c3c(-c4ccccc4)nc4sccn34)n2)cc1` are 97.3% and 98.6%.
The corresponding values for `Cc1ccc(S(=O)(=O)NCCCNc2nccc(-c3c(-c4ccccc4)nc4sccn34)n2)cc1` are 96.5% and 97.7%.
Turning to `COc1cccc(-c2nc3sccn3c2-c2ccnc(NCCNS(=O)(=O)c3ccc(F)cc3)n2)c1`, the inhibition was 95.2% in assay [1] and 96.9% in assay [2].
Consider `COc1ccc(-c2nc3sccn3c2-c2ccnc(NCCNS(=O)(=O)c3ccc(OC)cc3)n2)cc1`, for which the inhibition in [1] was 51.6%; in [2], 29.6%.
`COc1cccc(-c2nc3sccn3c2-c2ccnc(NCCCNS(=O)(=O)c3ccccc3)n2)c1`: the inhibition was found to be 92.4% in assay [1] and 96.1% in assay [2].
`COc1cccc(-c2nc3sccn3c2-c2ccnc(NCCCNS(=O)(=O)c3ccc4ccccc4c3)n2)c1`: the inhibition in assay [1] worked out at 91.9%; in assay [2], 94.9%.
On the same counts, the results for `COc1ccc(-c2nc3sccn3c2-c2ccnc(NCCNS(=O)(=O)c3ccc(C)cc3)n2)cc1` are 35.2% and 31.3%.
The corresponding values for `COc1ccc(S(=O)(=O)NCCNc2nccc(-c3c(-c4ccccc4)nc4sccn34)n2)cc1` are 95.4% and 96.3%.
On the same counts, the results for `COc1ccc(-c2nc3sccn3c2-c2ccnc(NCCNS(=O)(=O)c3cccc4ccccc34)n2)cc1` are 33.2% and 21.6%.
As for `Cc1ccc(S(=O)(=O)NCCNc2nccc(-c3c(-c4cccc(O)c4)nc4sccn34)n2)cc1`, the inhibition in assay [1] was determined as 98.2%; in assay [2], 97.9%.
On the same counts, the results for `CC(C)(C)OC(=O)N1CCCN(CCNc2nccc(-c3c(-c4cccc(O)c4)nc4sccn34)n2)S1(=O)=O` are 96.7% and 96%.
The corresponding values for `O=S(=O)(NCCNc1nccc(-c2c(-c3ccccc3)nc3sccn23)n1)c1ccc(F)cc1` are 96.6% and 97.4%.
On the same counts, the results for `COc1cccc(-c2nc3sccn3c2-c2ccnc(NCCNS(=O)(=O)c3ccc(C)cc3)n2)c1` are 89.6% and 92.7%.
For `COc1cccc(-c2nc3sccn3c2-c2ccnc(NCCN3CCNS3(=O)=O)n2)c1`, the inhibition in [1] was 96.5%; in assay [2], 98.2%.
The corresponding values for `Cc1ccc(S(=O)(=O)NCCNc2nccc(-c3c(-c4ccc(O)cc4)nc4sccn34)n2)cc1` are 47% and 39.5%.
The corresponding values for `COc1ccc(-c2nc3sccn3c2-c2ccnc(NCCNS(=O)(=O)c3ccc(F)cc3)n2)cc1` are 60.2% and 45.4%.
For `CN1CCN(CCNc2nccc(-c3c(-c4cccc(O)c4)nc4sccn34)n2)S1(=O)=O`, the inhibition result in assay [3], in assay [4], in assay [5], in assay [6], in assay [7] and in assay [8] was “Active” each time. For the same compound, the inhibition result in assay [9], in assay [10] and in assay [11] was “Active” each time. In assay [2], the inhibition was 98.4%.
In the case of `Cc1ccc(S(=O)(=O)NCCNc2nccc(-c3c(-c4ccccc4)nc4sccn34)n2)cc1`, the inhibition in assay [1] turned out to be 92.5%; in [2], 94.9%.
Consider `COc1cccc(-c2nc3sccn3c2-c2ccnc(NCCN3CC(C)(C)NS3(=O)=O)n2)c1`, for which the inhibition is 98.4% in assay [1] and 95.4% in assay [2].
Take `O=S(=O)(NCCNc1nccc(-c2c(-c3cccc(O)c3)nc3sccn23)n1)c1ccc(F)cc1`: the inhibition in assay [1] and in [2] was 100% throughout.
`COc1cccc(-c2nc3sccn3c2-c2ccnc(NCCNS(=O)(=O)c3ccc4ccccc4c3)n2)c1`: the values for the inhibition in assay [1] and in assay [2] were 90.6% and 93.7%, respectively.
In the case of `COc1cccc(-c2nc3sccn3c2-c2ccnc(NCCN3CCN(C)S3(=O)=O)n2)c1`, the inhibition in assay [1] was found to be 96.8%; in assay [2] it was 97.6%.
On the same counts, the results for `Cc1ccc(S(=O)(=O)NCCCNc2nccc(-c3c(-c4cccc(O)c4)nc4sccn34)n2)cc1` are 100% and 100%.
On the same counts, the results for `COc1cccc(-c2nc3sccn3c2-c2ccnc(NCCNS(=O)(=O)c3cccc(F)c3)n2)c1` are 94.9% and 96.7%.
On the same counts, the results for `O=S1(=O)NCCN1CCNc1nccc(-c2c(-c3cccc(O)c3)nc3sccn23)n1` are 98.9% and 99.2%.
For `COc1cccc(-c2nc3sccn3c2-c2ccnc(NCCN3CCCN(C)S3(=O)=O)n2)c1`, the inhibition in assay [1] is 97.5%; in assay [2], 97.9%.
Regarding `COc1cccc(-c2nc3sccn3c2-c2ccnc(NCCN3CCCNS3(=O)=O)n2)c1`, the inhibition came to 97.2% in [1] and 99.5% in [2].
The corresponding values for `COc1ccc(S(=O)(=O)NCCNc2nccc(-c3c(-c4cccc(OC)c4)nc4sccn34)n2)cc1` are 92.1% and 94.3%.
On the same counts, the results for `O=S(=O)(NCCCNc1nccc(-c2c(-c3ccccc3)nc3sccn23)n1)c1ccc(F)cc1` are 98.5% and 99.2%.
For `COc1cccc(-c2nc3sccn3c2-c2ccnc(NCCNS(=O)(=O)c3ccccc3)n2)c1`, the values for the inhibition in [1] and in [2] were 90.2% and 95.6%, respectively.
On the same counts, the results for `O=S1(=O)NCCCN1CCNc1nccc(-c2c(-c3cccc(O)c3)nc3sccn23)n1` are 99% and 99.6%.
